We go through one substance from PMC6442678 (Journal of medicinal chemistry, 2018).

This data set in a line: Ex vivo quantitation of tissue Mn content by ICP-MS. It counts as in vivo. To be noted: 24 h after injection of 0.1 mmol/kg, mice.

As for Mn-PyC3A-3-OBn [Complex 10], the “Mn levels / elimination 24 h after injection” value was “wholly eliminated”.
